One compound from publication PMC9583304 (ACS Omega, 2022) can be followed below.

Sequences of proteins named here, by UniProt entry; tags and fusion partners are left off.
UniProt Q99685, whole entry: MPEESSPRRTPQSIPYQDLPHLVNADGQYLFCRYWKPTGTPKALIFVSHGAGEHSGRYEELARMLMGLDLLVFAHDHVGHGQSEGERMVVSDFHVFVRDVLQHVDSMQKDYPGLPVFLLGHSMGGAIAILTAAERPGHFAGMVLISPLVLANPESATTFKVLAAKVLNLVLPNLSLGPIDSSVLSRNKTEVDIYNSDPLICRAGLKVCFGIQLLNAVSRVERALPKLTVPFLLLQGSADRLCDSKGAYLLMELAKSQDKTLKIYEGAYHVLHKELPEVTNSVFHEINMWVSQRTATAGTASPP

A word on the IC50: it is the midpoint of a concentration-inhibition curve.

This assay concerns the target human recombinant MAGL (Homo sapiens, UniProt Q99685). The experiment in a line: Human recombinant MAGL inhibition assay. The following applies: read-out: IC50 vs MAGL; mean based on triplicate measurement. Type of assay: biochemical.

In the case of `O=C(Oc1ccc([N+](=O)[O-])cc1)N1CCN(Cc2cccc(Oc3ccccc3)c2)CC1` [JLZ195], the 50% inhibitory concentration (IC50) amounted to 10.7 µM.
